Results on one molecule are retold here after ChEMBL document CHEMBL1144449, “Design, synthesis, and evaluation of orally active 4-(2,4-difluoro-5-(methoxycarbamoyl)phenylamino)pyrrolo[2,1-f][1,2,4]triazines as dual vascular endothelial growth factor receptor-2 and fibroblast growth factor receptor-1 inhibitors” (J Med Chem, 2005).

The chains behind the UniProt entries cited, without tags or fusion partners. Residues count along the entry.
UniProt P08069, 741-1367 limits assumed: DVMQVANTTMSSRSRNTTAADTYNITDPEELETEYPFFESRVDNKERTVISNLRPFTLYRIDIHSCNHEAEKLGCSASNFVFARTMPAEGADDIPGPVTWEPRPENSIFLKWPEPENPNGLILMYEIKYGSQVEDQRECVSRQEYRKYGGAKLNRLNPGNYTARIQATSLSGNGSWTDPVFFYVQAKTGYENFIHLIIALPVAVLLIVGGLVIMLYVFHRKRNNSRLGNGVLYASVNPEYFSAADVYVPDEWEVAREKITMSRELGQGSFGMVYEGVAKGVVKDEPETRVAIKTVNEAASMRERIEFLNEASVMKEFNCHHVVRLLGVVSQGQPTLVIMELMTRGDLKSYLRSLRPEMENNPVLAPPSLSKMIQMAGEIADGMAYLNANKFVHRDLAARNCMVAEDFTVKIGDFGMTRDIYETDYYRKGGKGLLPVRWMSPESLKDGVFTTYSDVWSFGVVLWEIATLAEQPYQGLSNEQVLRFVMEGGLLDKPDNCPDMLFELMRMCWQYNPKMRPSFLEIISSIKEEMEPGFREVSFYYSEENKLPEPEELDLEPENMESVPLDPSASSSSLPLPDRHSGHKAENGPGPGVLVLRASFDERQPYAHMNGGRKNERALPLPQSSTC
UniProt P08069, 31-736 limits assumed: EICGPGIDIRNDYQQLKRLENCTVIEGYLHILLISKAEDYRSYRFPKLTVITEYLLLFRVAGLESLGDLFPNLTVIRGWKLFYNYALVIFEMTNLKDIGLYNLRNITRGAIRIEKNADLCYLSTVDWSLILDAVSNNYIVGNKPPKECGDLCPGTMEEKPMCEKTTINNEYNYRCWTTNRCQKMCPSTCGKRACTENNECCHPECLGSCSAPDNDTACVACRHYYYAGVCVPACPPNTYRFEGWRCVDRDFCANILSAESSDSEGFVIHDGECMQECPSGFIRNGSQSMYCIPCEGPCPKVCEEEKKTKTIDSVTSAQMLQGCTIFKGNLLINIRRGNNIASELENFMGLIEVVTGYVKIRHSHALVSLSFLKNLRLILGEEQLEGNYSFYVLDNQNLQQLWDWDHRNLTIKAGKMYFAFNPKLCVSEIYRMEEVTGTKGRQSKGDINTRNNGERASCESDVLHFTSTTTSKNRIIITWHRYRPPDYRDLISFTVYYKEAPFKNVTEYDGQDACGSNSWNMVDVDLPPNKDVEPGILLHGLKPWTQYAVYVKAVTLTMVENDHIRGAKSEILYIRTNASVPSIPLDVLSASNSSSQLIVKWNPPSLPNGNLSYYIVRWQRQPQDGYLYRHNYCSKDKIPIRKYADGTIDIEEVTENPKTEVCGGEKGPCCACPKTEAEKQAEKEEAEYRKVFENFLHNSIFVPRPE

The target of the experiment is Insulin-like growth factor 1 receptor (Homo sapiens, UniProt P08069). The experiment is described as follows: Inhibition of human insulin-like growth factor I receptor.

The molecule `CONC(=O)c1cc(Nc2ncnn3cc(-c4nnc(C(F)(F)S(C)(=O)=O)o4)c(C(C)C)c23)c(F)cc1F` returned an IC50 greater than 25 µM.
